Sequences of proteins named here, by UniProt entry; tags and fusion partners are left off.
UniProt O95180, whole entry: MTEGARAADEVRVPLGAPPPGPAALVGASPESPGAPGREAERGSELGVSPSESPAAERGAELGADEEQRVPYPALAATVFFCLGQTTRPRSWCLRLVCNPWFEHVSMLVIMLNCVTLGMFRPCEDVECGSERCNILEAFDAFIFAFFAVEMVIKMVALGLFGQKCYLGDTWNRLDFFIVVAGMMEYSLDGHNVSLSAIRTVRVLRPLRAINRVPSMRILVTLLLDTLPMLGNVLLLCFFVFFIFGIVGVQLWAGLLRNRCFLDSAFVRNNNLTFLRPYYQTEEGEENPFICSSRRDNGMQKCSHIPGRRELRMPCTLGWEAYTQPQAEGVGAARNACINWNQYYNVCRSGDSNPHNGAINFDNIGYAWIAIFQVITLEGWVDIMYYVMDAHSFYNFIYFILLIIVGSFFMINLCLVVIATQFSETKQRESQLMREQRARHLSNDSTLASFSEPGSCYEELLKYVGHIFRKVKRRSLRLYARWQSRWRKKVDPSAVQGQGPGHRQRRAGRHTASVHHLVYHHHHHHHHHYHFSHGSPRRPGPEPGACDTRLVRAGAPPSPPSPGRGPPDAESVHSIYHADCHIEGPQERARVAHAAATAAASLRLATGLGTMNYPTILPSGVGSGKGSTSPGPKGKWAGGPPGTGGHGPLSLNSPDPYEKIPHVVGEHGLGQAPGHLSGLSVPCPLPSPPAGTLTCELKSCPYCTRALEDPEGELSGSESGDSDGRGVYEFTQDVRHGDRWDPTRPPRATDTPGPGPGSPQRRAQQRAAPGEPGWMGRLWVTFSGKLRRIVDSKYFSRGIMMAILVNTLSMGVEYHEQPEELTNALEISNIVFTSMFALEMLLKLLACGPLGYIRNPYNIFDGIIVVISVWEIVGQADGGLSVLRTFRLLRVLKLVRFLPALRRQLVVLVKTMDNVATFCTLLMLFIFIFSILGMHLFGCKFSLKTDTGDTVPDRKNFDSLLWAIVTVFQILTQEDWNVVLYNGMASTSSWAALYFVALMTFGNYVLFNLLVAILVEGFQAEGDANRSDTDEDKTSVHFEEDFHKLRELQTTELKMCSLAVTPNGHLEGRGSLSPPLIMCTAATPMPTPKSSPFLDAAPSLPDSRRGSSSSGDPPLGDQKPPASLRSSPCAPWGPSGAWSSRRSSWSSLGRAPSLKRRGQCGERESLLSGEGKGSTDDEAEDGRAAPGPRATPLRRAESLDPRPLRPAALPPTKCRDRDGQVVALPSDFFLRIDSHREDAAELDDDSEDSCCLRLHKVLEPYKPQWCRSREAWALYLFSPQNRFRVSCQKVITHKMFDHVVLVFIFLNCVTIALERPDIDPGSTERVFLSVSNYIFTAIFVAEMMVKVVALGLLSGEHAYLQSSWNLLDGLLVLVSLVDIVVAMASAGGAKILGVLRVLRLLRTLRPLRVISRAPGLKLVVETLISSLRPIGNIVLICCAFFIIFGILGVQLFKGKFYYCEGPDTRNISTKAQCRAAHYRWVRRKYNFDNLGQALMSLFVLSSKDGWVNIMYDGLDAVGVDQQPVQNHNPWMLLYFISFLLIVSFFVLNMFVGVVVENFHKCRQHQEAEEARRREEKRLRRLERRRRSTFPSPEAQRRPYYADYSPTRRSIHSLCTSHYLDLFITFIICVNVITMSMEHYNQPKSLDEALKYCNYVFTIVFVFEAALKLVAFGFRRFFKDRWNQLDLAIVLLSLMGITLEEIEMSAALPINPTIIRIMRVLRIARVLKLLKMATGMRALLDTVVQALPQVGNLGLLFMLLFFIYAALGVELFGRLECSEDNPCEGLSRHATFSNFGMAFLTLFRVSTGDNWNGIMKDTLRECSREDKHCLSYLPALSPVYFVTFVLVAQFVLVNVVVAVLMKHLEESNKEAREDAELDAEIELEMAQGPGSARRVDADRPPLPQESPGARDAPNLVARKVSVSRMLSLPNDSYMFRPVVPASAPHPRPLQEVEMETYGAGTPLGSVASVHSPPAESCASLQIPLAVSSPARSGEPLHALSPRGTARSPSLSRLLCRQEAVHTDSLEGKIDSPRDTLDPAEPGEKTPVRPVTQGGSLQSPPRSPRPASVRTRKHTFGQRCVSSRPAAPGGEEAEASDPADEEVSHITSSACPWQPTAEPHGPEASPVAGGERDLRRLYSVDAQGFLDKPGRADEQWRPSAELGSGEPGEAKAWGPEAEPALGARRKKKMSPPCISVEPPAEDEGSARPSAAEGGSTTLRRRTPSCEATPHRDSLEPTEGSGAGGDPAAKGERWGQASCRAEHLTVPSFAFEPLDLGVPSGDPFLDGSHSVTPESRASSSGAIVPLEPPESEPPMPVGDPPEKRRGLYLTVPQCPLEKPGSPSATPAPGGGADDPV

In patent publication US20160237071A1, “T-TYPE CALCIUM CHANNEL INHIBITOR” (NISSAN CHEMICAL INDUSTRIES, LTD., priority 2013, published 2016):

Target: Human T-type calcium channel (Cav 3.2) (Homo sapiens, UniProt O95180)
Test: Calcium influx inhibition assay
Conditions: read-out: C50; T-type calcium channel inhibition concentration; Cav 3.2 expressing HEK293 cells, FLIPR Calcium 4 fluorescence
Experimental: Human T-type calcium channel (Cav 3.2) expressing HEK293 cells were obtained from Prof. Edward Perez-Reyes, University of Virginia, USA. The calcium-sensitive fluorescent dye used was FLIPR Calcium 4 Assay Kit (Molecular Devices).
To a black 96-well plate with a clear bottom coated with type I collagen, the human T-type calcium channel (Cav 3.2) expressing HEK293 cells were seeded and cultured overnight, and the culture medium was removed. A solution of the calcium-sensitive fluorescent dye was added, and the whole was incubated at 37° C. in an atmosphere of 5% carbon dioxide for 30 minutes. To the plate, a diluted solution of a compound was added, and the whole was further incubated at 37° C. in an atmosphere of 5% carbon dioxide for 30 minutes. While fluorescence was continuously analyzed from the bottom with a FlexStation 3 (Molecular Devices), a calcium solution was added. […] From the rise in the fluorescence from the base line, the inhibition percentage was calculated. The logarithms of compound concentrations were plotted with respect to the inhibition activities to obtain an IC50 value (50% inhibition concentration).

IC50: 35 nM
Compound: COc1ccc2c(c1)C(O)CN(c1ncn(Cc3ccc(OS(=O)(=O)C(F)(F)F)nc3)c(=O)n1)C2 (stereo not shown)
